Experimental findings from PubChem BioAssay are described below.

A word on the inhibition: it is the relative decrease from the control value, in per cent.

This is a selection; strong and weak results do not stand in their true shares. Calls of active or inactive are those of the source.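 The calls were made as follows: active = membrane potential signal drops by more than 5 SD from the mean control signal, in both duplicate plates; inactive = the rest.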

This experiment can be described thus: membrane potential response modulators in host HEK293 cells – cell-based, second counter-screen, parental HEK293, membrane potential dye, counter-screen for TRPC6 modulator project, confirmation (AID 488926).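 Also: plate controls were acetylcholine ECmax control wells for no effect and buffer only wells for full effect.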 The note with it: parental HEK293, membrane potential dye fluorescence; at 10 µM; active compounds read high; after compound, maximal acetylcholine stimulation. In general terms: A counterscreen serves to expose hits that act by an unwanted route or on another target.

Take `CN1CCN(CCOC(=O)C(O)(c2ccccc2)c2ccccc2)CC1`: the inhibition is active: 79%.

Take `O=C(OC1CN2CCC1CC2)C1c2ccccc2C=Cc2ccccc21` (configuration not stated): the inhibition is active: 88.5%.
